From US12473332B2, “Modified peptides and associated methods of use” (Advanced Technologies For Novel Therapeutics, LLC, priority 2019, dated 2025)

Assay: MTT assay of ZaTa fragments, dimer and modified variants

In the case of KGRT[1Nal]TLC, the anti-cell proliferative activity is reported as “sufficient to inhibit cell proliferation”.

Where no end group is shown, it is not given here. [ ]: non-standard residue; d: D form. 1Nal = N[C@@H](Cc1cccc2ccccc12)C(=O)O
